{
  "source": "patent US8217001B2",
  "about": "“Modification of feeding behavior” (Imperial Innovations Limited, priority 2001, dated 2012)",
  "format_in_all_cases": "in vivo",
  "key": {"[1]": {"assay": "Human infusion study: PYY3-36 plasma concentrations"}, "[2]": {"assay": "Human infusion study: appetite scores, buffet meal calorie intake, food diaries"}, "[3]": {"assay": "Human infusion study: gastric emptying (paracetamol absorption) and plasma glucose and hormones", "details": "90 minute infusion"}},
  "data": [
    {"smiles": "CC[C@H](C)[C@H](N)C(=O)N[C@@H](CCCCN)C(=O)N1CCC[C@H]1C(=O)N[C@@H](CCC(=O)O)C(=O)N[C@@H](C)C(=O)N1CCC[C@H]1C(=O)NCC(=O)N[C@@H](CCC(=O)O)C(=O)N[C@@H](CC(=O)O)C(=O)N[C@@H](C)C(=O)N[C@@H](CO)C(=O)N1CCC[C@H]1C(=O)N[C@@H](CCC(=O)O)C(=O)N[C@@H](CCC(=O)O)C(=O)N[C@@H](CC(C)C)C(=O)N[C@@H](CC(N)=O)C(=O)N[C@@H](CCCN=C(N)N)C(=O)N[C@@H](Cc1ccc(O)cc1)C(=O)N[C@@H](Cc1ccc(O)cc1)C(=O)N[C@@H](C)C(=O)N[C@@H](CO)C(=O)N[C@@H](CC(C)C)C(=O)N[C@@H](CCCN=C(N)N)C(=O)N[C@@H](Cc1cnc[nH]1)C(=O)N[C@@H](Cc1ccc(O)cc1)C(=O)N[C@@H](CC(C)C)C(=O)N[C@@H](CC(N)=O)C(=O)N[C@@H](CC(C)C)C(=O)N[C@H](C(=O)N[C@H](C(=O)N[C@@H](CCCN=C(N)N)C(=O)N[C@@H](CCC(N)=O)C(=O)N[C@@H](CCCN=C(N)N)C(=O)N[C@@H](Cc1ccc(O)cc1)C(N)=O)[C@@H](C)O)C(C)C", "note": "[PYY3-36]", "values": [
      {"measurement": "time for concentrations to return to basal post-infusion", "setting": "[1]", "value": "≤ 30", "unit": "min"},
      {"measurement": "scores for sleepiness or sickness", "setting": "[2]; 90 minute infusion", "value": "not in the scores for sleepiness or sickness"},
      {"measurement": "fluid intake", "setting": "[2]; buffet meal", "value": "no effect upon fluid intake"},
      {"measurement": "sensations of fullness or nausea", "setting": "[2]; reported by volunteers", "value": "no difference in sensations of fullness or nausea"},
      {"measurement": "plasma glucose, plasma leptin, GLP-1, or insulin", "setting": "[3]", "value": "no effect"}
    ]}
  ]
}
